## AlphaSeq binding of Ab-14 light chain variants to a spike HR2 peptide

Reference: Li et al. 2023, doi:10.1038/s41467-023-39022-2. File: FLAb, binding data.

Target peptide (SARS-CoV-2 spike, HR2 region): PDVDLGDISGINAS

The variants keep the heavy chain, the linker and the frameworks of Ab-14 (scFv order VH, the linker GGGGSGGGGSGGGGS, VL).
VH: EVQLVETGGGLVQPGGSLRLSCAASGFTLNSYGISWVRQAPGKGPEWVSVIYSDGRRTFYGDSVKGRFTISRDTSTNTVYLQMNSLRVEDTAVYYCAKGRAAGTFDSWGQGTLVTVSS
VL: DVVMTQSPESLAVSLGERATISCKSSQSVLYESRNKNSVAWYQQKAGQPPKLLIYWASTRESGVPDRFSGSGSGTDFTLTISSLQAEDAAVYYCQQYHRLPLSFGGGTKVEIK

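The parent was found by panning a naive human phage display library on the peptide. The variants were designed computationally from a first round of random CDR variants and then made and measured. Several design methods are mixed in this list. The scFvs were displayed on barcoded MATa yeast, the peptide on MATalpha yeast. The frequency of each diploid, read from paired DNA barcodes, reflects how well the two displayed proteins bind. Each replicate has its own calibration line, from reference interactions of the BCL2 family. There are six technical replicates.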

Each variant is given by its three light chain CDRs, as the data file delimits them; those of the parent are KSSQSVLYESRNKNSVA, WASTRES, QQYHRLPLS. Affinities are written as log10 Kd with Kd in nM; a lower number is a better binder. A mean of the replicates is given; it leaves out those without a signal. A pair that was not seen in any replicate is written "no signal"; this usually means weak binding, but a binder can also be missed. Some sequences occur more than once in the pool; their replicates are pooled.

CDR-L1	CDR-L2	CDR-L3	mean log10 Kd (nM)	replicates with signal
KWSQSVDFESRNKNSVA	DASTRES	QQYHRLPLS	-0.18	6/6
NISINVADEYAMRNNIA	NTSWKAI	QQYFHLPLM	1.11	6/6
KLEQSQLYESRNKNSVA	NASTRMS	QQYHRLPLS	-0.11	6/6
KLSQSMLYESRNKNNVA	EASQRES	QQYHRLPLS	0.25	6/6
KSSQSVLYESRNKNSVA	QASTRES	QYYHRLPLS	2.24	2/6
MVGQGLMGESRAKNSIA	HASTRFD	QHYHRLPLI	1.39	6/6
KSSQSVLYESSNKNSVA	WASTRES	QQYQRLPLS	1.95	6/6
KVMQEMPYESRMANSVA	NASQRES	QQYHRLPLS	-0.32	6/6
MLSDVVEGLRRKHNSVA	DNSTRES	QQYDRLPLS	1.46	6/6
KIGHGLTTEMYNRNSVA	QTETRVE	QHYHRLPLS	1.95	6/6
KLSGSQLYESRNSNSVA	NGSTRES	QDYHRLPLS	-0.20	6/6
QISQMMNLSMHQVNNVA	QMTTREK	QQYDRLPLS	1.07	6/6
KSSQSVLMESRNKNAVA	WASTREQ	QQYHRLPLE	1.99	22/30
HIDQVKAEQKTAENNIA	SGAQRVW	QQYSRLPFI	0.21	6/6
KSSQEVLYESRNKNSVA	AASTRES	QQYHRLPLS	0.16	6/6
TISGSANYESTNKNSVA	ELTTRGS	QQYVRLPLS	0.85	6/6
KLSWSMLYESRNKNSVA	EASTRES	QQYHRLPLS	-0.10	6/6
KFSQMVNYESTHVNAVA	QMSTREE	QQYNRLPLS	0.49	6/6
KCMQSVLYESRNKNSVA	WASTRES	QQDHRHPLS	no signal	0/6
MVSQLMLWGLHAKNSIA	HAQMRLN	QQYDRLPLE	no signal	0/6
KISYLQNQTFEQSSNVA	EMVTRAK	QQYNRLPLS	1.00	6/6
KIGGVTNGISFSKNSVA	EQSTREE	QQYDRLPLS	0.75	6/6
ALGDVTRMEQNKKNSIA	DMSTRES	QQYHRLPLS	-0.17	6/6
KISQSVLYESRNKNSVA	RASTRES	QQYHRLVLS	0.92	5/6
MISQMYNMGSFAINSVA	QASLRNE	QQYDRLPLI	1.23	6/6
QLEVERGQEWKAGAAIA	GNTEKLH	QQYAMLPLS	1.05	6/6
KSPQSVLYESRNKNSVA	YASTRES	QQYHRLPLS	1.33	6/6
KLSQEMLYESRMINSVA	NASQREE	QQYHRLPLS	0.25	6/6
KLYNMTGIESHAKNSLA	DANRRED	QQYHRLPLS	0.09	6/6
KLQQSTLYESRNKNSVA	NASQRES	QQYHRLPLS	0.43	6/6
TISQSAHMESHQKNNVA	DLNLRGS	QQYDRLPLS	0.21	6/6
KLSQSMLYESRNWNSVA	NASTRLS	QQYHRLPLS	0.10	6/6
KISQVAMTTGKLKNSVA	NAYTRVQ	QQYHRLPLS	0.56	6/6
MVYSAVMLGGSTRNSIA	NAQTRCD	QQYHRLPLI	0.46	6/6
ALGDVTRMESNKKDSIA	DMSNRED	QQYHRLPLS	-0.15	6/6
MISQLYNMGSFAINSVA	QASIRNA	QQYDRLPLA	1.20	5/6
KSSQSVLYESRQKNSVA	WASTRES	QQYHRLPLS	2.55	3/6
KLENSNLYQSRNKNSVA	NASTRYS	QQYHRLPLS	0.40	6/6
KSSWSVLYESFNKNSVA	HASTRED	QQYHRLPLS	2.19	2/6
KIGMTLNQLMQKKNNVA	DLVEREQ	QQYHRLPLS	0.14	6/6
KSSQSWLYESRNKNSVA	HASTREQ	QQYHRLPLM	0.68	6/6
QLFHRWGQLDNIQYNVA	NATTVID	QQYMRLPLT	0.55	6/6
KLGQMTAIESRNLNNVA	QMDTRES	QQYHRLPLS	-0.21	6/6
KVSQSVMMLQRNKNSVA	DNSTSGS	QQYHRLPLS	2.15	4/6
KSSQSVLYESRNKNSVA	WANTRES	QQYHRLPLS	2.07	3/6
KLRMSTLYESRNKNSVA	SASTRES	QQYHRLPLS	-0.50	6/6
KSGQGVLYESRNKNSVA	GAWTRES	QQYHRLPLS	0.42	6/6

The last 7 entries again:

{"CDR-L1": "KSSQSWLYESRNKNSVA", "CDR-L2": "HASTREQ", "CDR-L3": "QQYHRLPLM", "mean log10 Kd (nM)": "0.68", "replicates with signal": "6/6"}
{"CDR-L1": "QLFHRWGQLDNIQYNVA", "CDR-L2": "NATTVID", "CDR-L3": "QQYMRLPLT", "mean log10 Kd (nM)": "0.55", "replicates with signal": "6/6"}
{"CDR-L1": "KLGQMTAIESRNLNNVA", "CDR-L2": "QMDTRES", "CDR-L3": "QQYHRLPLS", "mean log10 Kd (nM)": "-0.21", "replicates with signal": "6/6"}
{"CDR-L1": "KVSQSVMMLQRNKNSVA", "CDR-L2": "DNSTSGS", "CDR-L3": "QQYHRLPLS", "mean log10 Kd (nM)": "2.15", "replicates with signal": "4/6"}
{"CDR-L1": "KSSQSVLYESRNKNSVA", "CDR-L2": "WANTRES", "CDR-L3": "QQYHRLPLS", "mean log10 Kd (nM)": "2.07", "replicates with signal": "3/6"}
{"CDR-L1": "KLRMSTLYESRNKNSVA", "CDR-L2": "SASTRES", "CDR-L3": "QQYHRLPLS", "mean log10 Kd (nM)": "-0.50", "replicates with signal": "6/6"}
{"CDR-L1": "KSGQGVLYESRNKNSVA", "CDR-L2": "GAWTRES", "CDR-L3": "QQYHRLPLS", "mean log10 Kd (nM)": "0.42", "replicates with signal": "6/6"}

The authors' rule: three or more of the six replicates give a measured affinity, fewer mean a poor binder. The parent sequence was in this pool as ten entries: three were never detected, three once, and four in most replicates, with averages from 0.34 to 2.37. A sequence measured in both rounds can read differently, since the two assays cover different ranges. Empty control strains, which show no peptide, gave a signal in 4% of pairings with all light chain designs; the median was 2.64 and 95% of these signals were weaker than 1.59. No background was subtracted.